Tested on: HFF-1
Assay: MTT cell viability assay, normal fibroblasts HFF-1
Type: cell-based, human
Conditions: 72 h
Procedure: Compounds 4a–p were submitted to a preliminary MTT assay at a one-point screening concentration of 75 μM for 72 h, including 2b as a reference compound (Figure 3). […] The presence of the electron-donating methoxy group decreased the activity of 2b, in both the para and meta positions. […] Specifically, these compounds, namely 4d, 4e, 4f, 4h, 4i, 4j, 4k, 4l, and 4m, were tested at concentrations of 3, 6, 12 and 24 µM for 72 h. In addition, the nine compounds, together with 2b, were tested against human fibroblasts HFF-1, in order to evaluate their selectivity against tumor cells, as compared to normal cells. Effects on cancer or normal cell viability were extrapolated from concentration–response curves and are expressed as IC50 values in Table 2.
Pancreatic cancer (AsPC-1, BxPC-3, and Capan-2), paraganglioma (PTJ86i and PTJ64i) and normal fibroblast (HFF-1) cell lines were cultured as previously described. All compounds were dissolved in DMSO (stock solutions) and then diluted in culture media to the final working concentrations. […]
IC50 values were extrapolated from concentration–response curves and calculated using the CompuSyn software. The interactions between compound 4l and gemcitabine were assessed by calculating the CI values using the CompuSyn software. […] SI values were calculated as previously described. […]

Structure (SMILES): Nc1ccn([C@@H]2O[C@H](CO)[C@@H](O)C2(F)F)c(=O)n1 [GEM, gemcitabine, reference compound]
- Inhibition Rate of Cell Viability (HFF-1, GEM 0.1 µM): 27.39%
- Inhibition Rate of Cell Viability (HFF-1, GEM 1 µM): 25.43%

From publication PMC9412555, “Benzothiazole Derivatives Endowed with Antiproliferative Activity in Paraganglioma and Pancreatic Cancer Cells: Structure–Activity Relationship Studies and Target Prediction Analysis” (Pharmaceuticals, 2022)
